Source: US7166618B2, “Nitrosated and nitrosylated cyclooxygenase-2 inhibitors, compositions and methods of use” (NitroMed, Inc., priority 1999, dated 2007)

Each compound was assayed against T1, ovine COX-2 (Ovis aries, UniProt P79208) (assay: biochemical).
T1 sequence (P79208 17-603): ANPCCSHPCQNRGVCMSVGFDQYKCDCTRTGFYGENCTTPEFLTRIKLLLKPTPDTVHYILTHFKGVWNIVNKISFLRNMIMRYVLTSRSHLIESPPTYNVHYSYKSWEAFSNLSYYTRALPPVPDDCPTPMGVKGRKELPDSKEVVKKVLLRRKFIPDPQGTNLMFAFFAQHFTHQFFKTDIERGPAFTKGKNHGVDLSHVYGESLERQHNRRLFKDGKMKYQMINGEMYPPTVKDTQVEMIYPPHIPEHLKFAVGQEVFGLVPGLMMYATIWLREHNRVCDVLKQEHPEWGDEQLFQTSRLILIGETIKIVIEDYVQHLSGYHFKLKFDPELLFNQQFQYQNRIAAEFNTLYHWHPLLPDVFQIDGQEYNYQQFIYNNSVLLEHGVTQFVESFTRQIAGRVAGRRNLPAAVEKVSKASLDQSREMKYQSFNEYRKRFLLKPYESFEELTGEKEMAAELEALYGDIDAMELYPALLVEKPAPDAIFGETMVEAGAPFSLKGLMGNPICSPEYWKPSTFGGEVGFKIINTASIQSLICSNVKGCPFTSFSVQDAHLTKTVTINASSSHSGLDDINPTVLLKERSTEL

With NS(=O)(=O)c1ccc(-c2c(-c3ccccc3)noc2CO)cc1 [Example 2a, 4-(5-(Hydroxymethyl)-3-phenylisoxazol-4-yl)benzenesulfonamide, reference compound] as the compound, how does the IC50 read?
The IC50 was 24 µM.

For NS(=O)(=O)c1ccc(-n2nc(CO)cc2-c2ccc(Cl)cc2)cc1 [Example 1a, 4-(5-(4-Chlorophenyl)-3-(hydroxymethyl)-3-hydropyrazolyl) benzenesulfonamide, reference compound], which IC50 is on record?
The IC50 was 3.3 µM.

Which IC50 does the source give for Cc1onc(-c2ccccc2)c1-c1ccc(S(N)(=O)=O)cc1 [Example 3e, 4-(5-(Methyl)-3-phenylisoxazol-4-yl)benzenesulfonamide, reference compound] here?
Its IC50 is 0.006 µM.
